The values that follow are results of earlier work, collected in patent US20250302717A1, “Systems and Methods for Making Personal Care Products” (published 2025).

The structures appear in SMILES notation.

This data set relates to skin, immune system, respiratory tract.

With `OCCN(CCO)CCO`, the toxicity in humans result is “toxic to the skin, the immune system, and the respiratory tract”.
